Measured values reported in patent publication US20200179487A1, “METHODS OF DIAGNOSIS AND TREATMENT OF PRE-ECLAMPSIA” (AGENCY FOR SCIENCE, TECHNOLOGY AND RESEARCH, priority 2016, published 2020).

Biological target: T1, APJ (APLNR) (Homo sapiens, UniProt P35414)
T1 sequence (P35414 1-380): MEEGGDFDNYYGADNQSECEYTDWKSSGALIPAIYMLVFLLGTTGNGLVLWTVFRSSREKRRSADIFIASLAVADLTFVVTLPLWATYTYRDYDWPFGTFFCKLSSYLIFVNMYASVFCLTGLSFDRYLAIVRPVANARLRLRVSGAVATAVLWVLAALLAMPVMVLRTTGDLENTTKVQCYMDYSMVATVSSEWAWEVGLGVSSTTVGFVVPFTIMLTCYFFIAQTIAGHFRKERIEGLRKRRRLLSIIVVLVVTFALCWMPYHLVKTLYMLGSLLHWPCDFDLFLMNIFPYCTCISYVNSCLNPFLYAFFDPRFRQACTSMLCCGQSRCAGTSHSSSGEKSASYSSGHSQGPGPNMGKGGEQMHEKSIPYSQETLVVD
Assay: APJ activation measured by beta-Arrestin recruitment
Format: cell-based

APELIN
synergy of ELA and APELIN with respect to APJ activation (ELA and APELIN combined): no appreciable synergy
potency of APJ (APLNR) activation (beta-Arrestin recruitment, ELA compared with APELIN): same potency
